Test results reported in PMC11676875, “In Vitro Screening of an In-House Library of Structurally Distinct Chemotypes Towards the Identification of Novel SARS-CoV-2 Inhibitors” (Pharmaceuticals, 2024).

Experiments:
[1] = test system: Vero E6 cells; experiment: Cytotoxicity assay (MTT) on Vero E6 cells; conditions: read-out: Vero E6 CC50, 72 h incubation
[2] = test system: SARS-CoV-2; conditions: words in Figures 6 and 7

SMILES	CC50 [1] [µM]	SAR analysis summary of anti-SARS-CoV-2 activity [2]
Cc1ccc2c(c1)nc(Cn1nnc3ccccc31)n2CCN(C)C	37.7	Inactive/ Cytotoxic
CN(C)CCn1c(Cn2nnc3ccccc32)nc2cc(Cl)ccc21	192	Inactive/ Cytotoxic

Only a part of the results on these compounds is given; other tests are left out.
